# pIC50: −log10 of the molar value.
# Amino acid sequences for entries named in this document (tags omitted). A change or cut given only in a name is not applied to a line headed by its entry.
# UniProt O14649: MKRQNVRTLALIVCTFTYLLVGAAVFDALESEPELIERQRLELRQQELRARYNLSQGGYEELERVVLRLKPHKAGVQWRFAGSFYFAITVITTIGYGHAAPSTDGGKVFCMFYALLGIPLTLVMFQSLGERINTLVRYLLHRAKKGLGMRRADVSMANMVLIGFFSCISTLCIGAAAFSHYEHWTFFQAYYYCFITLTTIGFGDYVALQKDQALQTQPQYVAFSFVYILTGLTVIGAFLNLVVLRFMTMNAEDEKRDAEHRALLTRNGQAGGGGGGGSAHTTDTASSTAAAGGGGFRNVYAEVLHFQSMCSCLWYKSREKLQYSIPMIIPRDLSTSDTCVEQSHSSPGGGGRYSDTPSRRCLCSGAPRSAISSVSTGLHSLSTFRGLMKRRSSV
# Target: Human TASK-1 channels (Homo sapiens (Human), UniProt O14649)
# Assay: Determination of the activity on the TASK-1 channel in Xenopus oocytes (two-microelectrode voltage clamp)
# Type: cell-based
# Details: human TASK-1 expressed in Xenopus oocytes, room temperature; read-out: IC50 value for TASK-1 inhibition
# Protocol: Determination of the activity on the TASK-1 channel in Xenopus oocytes
# Human TASK-1 channels were expressed in Xenopus oocytes. For this purpose, oocytes were isolated from Xenopus laevis and defoliculated. Subsequently, TASK-1-encoding RNA synthesized in vitro was injected into the oocytes. After two days of TASK-1 protein expression, TASK-1 currents were measured by two-microelectrode voltage clamp. Data were acquired and analyzed using a TEC-10cx amplifier (NPI Electronic, Tamm, Germany) connected to an ITC-16 interface (Instrutech Corp., Long Island, USA) and Pulse software (HEKA Elektronik, Lambrecht, Germany). Oocytes were clamped to −90 mV and TASK-1 mediated currents were measured during 500 ms voltage pulses to 40 mV. Oocytes were continuously superfused with ND96 buffer containing 96 mM sodium chloride, 2 mM potassium chloride, 1.8 mM calcium chloride, 1 mM magnesium chloride, 5 mM 4-(2-hydroxyethyl)-piperazine-1-ethanesulfonic acid (HEPES; pH adjusted to 7.4 with sodium hydroxide). All experiments were performed at room temperature. Test compounds were consecutively added to the bath solution at rising concentrations. Compound effects were calculated as the percentage inhibition of TASK-1 control current before compound addition. IC50 values were obtained by fitting the data to the general dose-response equation.
substance,measurement,value
"3,4-Dihydro-1H-pyrrolo[2,1-c][1,4]thiazine-6,8-dicarboxylic acid 8-{[(R)-1-(4-fluoro-phenyl)-ethyl]-amide} 6-[((R)-1-phenyl-propyl)-amide] [16kq]",pIC50,7.34

# — patent US9284333B2, “Fused pyrroledicarboxamides and their use as pharmaceuticals” (SANOFI, priority 2012, dated 2016)
